Experiments:
[1] = biological target: pp35, dephosphorylated (murine)
[2] = biological target: pp32, dephosphorylated (murine) (UniProt O35381)
[3] = biological target: pp32 (32 kDa murine nuclear phosphoprotein from A20 cells) (murine) (UniProt O35381)
[4] = biological target: pp35 (35 kDa murine nuclear phosphoprotein purified from A20 cells) (murine)

32P incorporation (stoichiometry of phosphorylation) [1]: < 0.02 mol/mol
32P incorporation (stoichiometry of phosphorylation) [2]: < 0.02 mol/mol
32P incorporation (stoichiometry of phosphorylation) [3]: < 0.02 mol/mol
32P incorporation (stoichiometry of phosphorylation) [4]: < 0.02 mol/mol
Substance: catalytic subunit of cAMP-dependent protein kinase from bovine heart (Sigma) (from UniProt P00517) (enzyme)
